# Assay results as given in paper PMC3499949 (Journal of medicinal chemistry, 2012).
# The chains behind the UniProt entries cited, without tags or fusion partners. Where a name states a change or a piece, a line headed by the entry shows the natural chain unless it says otherwise.
# UniProt P41145: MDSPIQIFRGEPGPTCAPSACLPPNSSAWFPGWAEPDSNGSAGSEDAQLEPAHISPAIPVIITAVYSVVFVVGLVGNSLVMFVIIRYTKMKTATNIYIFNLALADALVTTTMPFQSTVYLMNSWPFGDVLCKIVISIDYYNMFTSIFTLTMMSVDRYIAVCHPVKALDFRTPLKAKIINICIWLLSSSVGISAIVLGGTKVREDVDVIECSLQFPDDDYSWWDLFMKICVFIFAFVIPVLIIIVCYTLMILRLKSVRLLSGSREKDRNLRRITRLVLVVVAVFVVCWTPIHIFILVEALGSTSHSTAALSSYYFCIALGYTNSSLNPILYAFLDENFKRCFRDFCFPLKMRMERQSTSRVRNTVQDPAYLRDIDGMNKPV
# Tests used:
# hKOR [1] = biological target: T1, hKOR (Homo sapiens, UniProt P41145); test: [35S]GTP-γ-S binding assay, antagonist shift design, KOR; format: biochemical
# hKOR [2] = biological target: T1, hKOR; test: [35S]GTP-γ-S binding assay, agonist stimulation, KOR; format: biochemical; conditions: stimulation of [35S]GTP-γ-S binding; no stim = no stimulation at 10 µM
structure (smiles),measurement,setting,value
"Oc1ccc2c3c1O[C@H]1c4ncc(-c5ccc(Cl)cc5)cc4C[C@@]4(OCCCc5ccccc5)[C@@H](C2)N(CC2CC2)CC[C@]314 [17d, 5′-(4-Chlorophenyl)-17-(cyclopropylmethyl)-6,7-didehydro-4,5α-epoxy-3-hydroxy-14-(3-phenylpropoxy)pyrido[2′,3′:6,7]morphinan]",Kb,hKOR [1],1.35 ± 0.28 nM
same,KOR EC50,hKOR [2],no stim
